Measurements as given in patent publication US8440641B2, “Phthalocyanine salt formulations” (Case Western Reserve University, priority 2009, dated 2013).

Legend:
[1] = Salt concentration in polar and nonpolar solvents (Table 2); assay type: physicochemical
[2] = Qualitative solubility in representative organic solvents; assay type: physicochemical

Compound: CN(C)CCC[Si](C)(C)O[Si-2]123(O)n4c5c6ccccc6c4N=C4c6ccccc6C(=[N+]41)N=c1c4ccccc4c(n12)=NC1=[N+]3C(=N5)c2ccccc21.O=c1[nH]cnc2c1ncn2C1OC(COP(=O)(O)O)C(O)C1O [Compound 25, [HOSiPcOSi(CH3)2(CH2)3NH(CH3)2]^+[C4H3N4OC4H6O3CH2OPO3H]^−]
- salt concentration, […] aqueous Tween 80 ([1]; […] aqueous Tween 80): 0.274 mM
- solubility in aqueous solution ([1]; aqueous solution, in words): show solubility
- salt concentration, hexanes ([1]; hexanes): 0.000 mM
- solubility in hexanes and mineral oil ([1]; hexanes, mineral oil (Nujol), in words): little
- salt concentration, mineral oil ([1]; mineral oil): 0.002 mM
- solubility in CH2Cl2 ([2]; CH2Cl2, qualitative): soluble
- solubility in dimethylformamide ([2]; dimethylformamide, qualitative): soluble
- solubility in ethanol ([2]; ethanol, qualitative): soluble
- solubility in hexanes ([2]; hexanes, qualitative): insoluble
- solubility in toluene ([2]; toluene, qualitative): moderately soluble
